The results in this text go back to US20240209053A1 (Protagonist Therapeutics, Inc., priority 2021, published 2024).

Molecules are shown by their SMILES.

One assay has as its target T1, human ferroportin (SLC40A1) (Homo sapiens, UniProt Q9NP59).
T1 sequence (Q9NP59 1-571): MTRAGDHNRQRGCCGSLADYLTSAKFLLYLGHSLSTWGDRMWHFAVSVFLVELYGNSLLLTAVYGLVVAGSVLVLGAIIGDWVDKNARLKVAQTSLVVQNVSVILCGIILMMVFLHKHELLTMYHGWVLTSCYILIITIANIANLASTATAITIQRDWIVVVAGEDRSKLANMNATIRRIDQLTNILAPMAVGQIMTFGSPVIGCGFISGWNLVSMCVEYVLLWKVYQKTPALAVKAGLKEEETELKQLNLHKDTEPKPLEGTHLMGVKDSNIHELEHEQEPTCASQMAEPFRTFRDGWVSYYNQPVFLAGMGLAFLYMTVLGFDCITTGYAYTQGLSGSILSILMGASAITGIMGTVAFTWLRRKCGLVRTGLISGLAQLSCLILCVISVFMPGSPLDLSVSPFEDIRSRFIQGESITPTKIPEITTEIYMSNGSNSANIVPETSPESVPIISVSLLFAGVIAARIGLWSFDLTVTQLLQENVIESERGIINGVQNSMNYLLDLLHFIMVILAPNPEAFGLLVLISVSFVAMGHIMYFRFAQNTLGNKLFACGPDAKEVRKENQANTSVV
Nature of the assay: FPN activity assay: internalization/degradation of ferroportin-GFP in stably transfected HEK293 cells (decrease in GFP fluorescence). Format: cell-based. The following applies: Table 6B, Formula (X) peptides. As to the method:
Peptide analogues were tested in vitro for induction of internalization of the human ferroportin protein. Following internalization, the ferroporin protein is degraded. The assay used (FPN activity assay) measures a decrease in fluorescence of the receptor. The cDNA encoding the human ferroportin (SLC40A1) was cloned from a cDNA clone from Origene (NM_014585). The DNA encoding the ferroportin was amplified by PCR using primers also encoding terminal restriction sites for subcloning, but without the termination codon. The ferroportin receptor was subcloned into a mammalian GFP expression vector containing a neomycin (G418) resistance marker in such that the reading frame of the ferroportin was fused in frame with the GFP protein. The fidelity of the DNA encoding the protein was confirmed by DNA sequencing. HEK293 cells were used for transfection of the ferroportin-GFP receptor expression plasmid. The cells were grown according to standard protocol in growth medium and transfected with the plasmids using Lipofectamine (manufacturer's protocol, Invitrogen). The cells stably expressing ferroportin-GFP were selected using G418 in the growth medium (in that only cells that have taken up and incorporated the cDNA expression plasmid survive) and sorted several times on a Cytomation MoFloTM cell sorter to obtain the GFP-positive cells (488 nm/530 nm). The cells were propagated and frozen in aliquots. […] Compound was added to desired final concentration for at least 18 hours in the incubator. Following incubation, the remaining GFP-fluorescence was determined either by whole cell GFP fluorescence (Envision plate reader, 485/535 filter pair), or by Beckman Coulter QuantaTM cytometer (express as Geometric mean of fluorescence intensity at 485 nm/525 nm). Compound was added to desired final concentration for at least 18 hours but no more than 24 hours in the incubator. […] The “RI” in RI-Mini-Hepcidin refers to Retro Inverse. A retro inverse peptide is a peptide with a reversed sequence in all D amino acids. An example is that […] becomes […]. The EC50 of these reference compounds for ferroportin internalization/degradation was determined according to the FPN activity assay described above. These peptides served as control standards.
The IC50 is the concentration at which inhibition is half-maximal. In turn, `CC[C@H](C)[C@@H]1NC(=O)[C@H](CCCCNC(=O)COCCOCCNC(=O)COCCOCCNC(=O)C[N+](C)(C)CCNC(=O)CCCCCCCCCCCCCCCCC(=O)O)NC(=O)[C@@H]2CCCN2C(=O)[C@H](C(c2ccccc2)c2ccccc2)NC(=O)[C@H](Cc2c[nH]cn2)NC(=O)[C@H]([C@@H](C)O)NC(=O)[C@@H](NC(=O)CC(C)C)CCC/C=C/CCC[C@@H](C(=O)N[C@H](CC(=O)N[C@H](CCCNC(=N)N)C(N)=O)Cc2ccccc2)NC1=O` [compound 115] returned a concentration for half-maximal inhibition (IC50) of 10 to 100 nM.
In turn, `CCCCCCCCCCCCCCCC(=O)NCCCCCC(=O)NCCOCCOCC(=O)NCCOCCOCC(=O)NCCCC[C@@H]1NC(=O)[C@@H]2CCCN2C(=O)[C@H](C(c2ccccc2)c2ccccc2)NC(=O)[C@H](Cc2c[nH]cn2)NC(=O)[C@H]([C@@H](C)O)NC(=O)[C@@H](NC(=O)CC(C)C)CCC/C=C/CCC[C@@H](C(=O)N[C@H](CC(=O)N[C@H](CCCNC(=N)N)C(N)=O)Cc2ccccc2)NC(=O)[C@H]([C@@H](C)CC)NC1=O` [compound 116] returned an IC50 of 10 to 100 nM.
On the same count and under the same terms, in the case of `CCCCCCCCCCCCCCCC(=O)NCCCCCC(=O)NCCCC[C@@H]1NC(=O)[C@@H]2CCCN2C(=O)[C@H](C(c2ccccc2)c2ccccc2)NC(=O)[C@H](Cc2c[nH]cn2)NC(=O)[C@H]([C@@H](C)O)NC(=O)[C@@H](NC(=O)CC(C)C)CCC/C=C/CCC[C@@H](C(=O)N[C@H](CC(=O)N[C@H](CCCNC(=N)N)C(N)=O)Cc2ccccc2)NC(=O)[C@H](CCCNC(=N)N)NC1=O` [compound 117] it was 10 to 100 nM; in that of `CC[C@H](C)[C@@H]1NC(=O)[C@H](CCCCNC(=O)COCCOCCNC(=O)COCCOCCNC(=O)C[N+](C)(C)CCNC(=O)CCCCCCCCCCCCCCCCC(=O)O)NC(=O)[C@@H]2CCCN2C(=O)[C@H](C(c2ccccc2)c2ccccc2)NC(=O)[C@H](Cc2c[nH]cn2)NC(=O)[C@H]([C@@H](C)O)NC(=O)[C@@H](NC(=O)CC(C)C)CCC/C=C/CCC[C@@H](C(=O)N[C@H](CC(=O)N[C@H](CCCCNC(=O)C[N+](C)(C)C)C(N)=O)Cc2ccccc2)NC1=O` [compound 119], 1 to 10 nM; in that of `CCCCCCCCCCCCCCCC(=O)NCCCCCC(=O)NCCCC[C@@H]1NC(=O)[C@@H]2CCCN2C(=O)[C@H](C(c2ccccc2)c2ccccc2)NC(=O)[C@H](Cc2c[nH]cn2)NC(=O)[C@H]([C@@H](C)O)NC(=O)[C@@H](NC(=O)CC(C)C)CCC/C=C/CCC[C@@H](C(=O)N[C@H](CC(=O)N[C@H](CCCNC(=N)N)C(N)=O)Cc2ccccc2)NC(=O)[C@H]([C@@H](C)CC)NC1=O` [compound 118], 1 to 10 nM.

Still in this assay, the particulars now being: Table 6C, Formula (XI) peptides.
For `CCCCCCCCCCCCCCCC(=O)NCCCCCC(=O)NCCCC[C@H](NC(=O)C[C@H](Cc1ccccc1)NC(=O)[C@@H]1CC/C=C/CC[C@H](NC(=O)CC(C)C)C(=O)N[C@@H]([C@@H](C)O)C(=O)N[C@@H](Cc2c[nH]cn2)C(=O)N[C@@H](C(c2ccccc2)c2ccccc2)C(=O)N2CCC[C@H]2C(=O)NCC[N+](C)(C)CC(=O)N1)C(N)=O` [compound 127], the IC50 is 100 to 500 nM.

A further assay addresses T2, ferroportin (Homo sapiens, UniProt Q9NP59).
T2 sequence (Q9NP59 1-571): T1 sequence (Q9NP59 1-571)
Nature of the assay: T47D cell-based ferroportin internalization assay in presence of 0.5% mouse serum albumin (MSA). Conditions: Table 6B, T47D cells. As to the method:
The potency of the peptides in causing ferroportin internalization was evaluated in a T47D cell-based assay. […] In this internalization assay, the potency of the test peptides was evaluated in presence of serum albumin which is the main protein component in the blood. T47D cells were maintained in RPMI media (containing required amount of fetal bovine serum) and regularly sub-cultured. In preparation for the assay, the cells were seeded in 96-well plates at a density of 80-100 k cells per well in 100 ul volume and allowed to rest overnight. On the next day, test peptides were first prepared in dilution series (10-point series, starting concentration of ˜5 μM, typically 3-4×fold dilution steps), all with 0.5% mouse serum albumin (MSA purified from mouse serum; Sigma, A3139). The test peptide dilution series were allowed to incubate at room temperature for 30 min. Then the media was aspirated from the 96-well cell plate and test peptide dilution series were added. After 1 hr incubation, the media with test peptides was aspirated out and AF647-conjugated detection peptide was added at fixed concentration of 200 nM. The AF647-conjugated detection peptide was previously verified to bind to ferroportin and cause its internalization. The cells were washed again after a 2 hr incubation in preparation for flow cytometry analysis. The Median Fluorescence Intensity (MFI) of the AF647-positive population was measured (after removing dead cells and non-singlets from the analysis). The MFI values were used to generate a dose-response curve and obtain IC50 potencies for the test peptides. The IC50 potencies were calculated by using 4-parameter non-linear fitting function in Graphpad Prism (Table 6A).
As for `CC[C@H](C)[C@@H]1NC(=O)[C@H](C)NC(=O)[C@@H]2CCCN2C(=O)[C@H](C(c2ccccc2)c2ccccc2)NC(=O)[C@H](Cc2c[nH]cn2)NC(=O)[C@H]([C@@H](C)O)NC(=O)[C@@H](NC(=O)CC(C)C)CCC/C=C/CCC[C@@H](C(=O)N[C@H](CC(=O)N[C@@H](CCCCNC(=O)COCCOCCNC(=O)COCCOCCNC(=O)CC[C@H](NC(=O)CCCCCCCCCCCCCCCCC(=O)O)C(=O)O)C(=O)N[C@H](CCCNC(=N)N)C(N)=O)Cc2ccccc2)NC1=O` [compound 112], the IC50 is 10 to 100 nM.
With `CC(C)CC(=O)N[C@H]1CCC/C=C/CCC[C@@H](C(=O)N[C@H](CC(=O)N[C@H](CCCNC(=N)N)C(N)=O)Cc2ccccc2)NC(=O)[C@H](CC(C)(C)C)NC(=O)[C@H](CCCCNC(=O)COCCOCCNC(=O)COCCOCCNC(=O)CCCCCNC(=O)CCCCCCCCCCCCCCCCC(=O)O)NC(=O)[C@@H]2CCCN2C(=O)[C@H](C(c2ccccc2)c2ccccc2)NC(=O)[C@H](Cc2c[nH]cn2)NC(=O)[C@H]([C@@H](C)O)NC1=O` [compound 109], the IC50 was 10 to 100 nM.
With `CCCCCCCCCCCCCCCC(=O)NCCCCCC(=O)NCCCC[C@@H]1NC(=O)[C@@H]2CCCN2C(=O)[C@H](C(c2ccccc2)c2ccccc2)NC(=O)[C@H](Cc2c[nH]cn2)NC(=O)[C@H]([C@@H](C)O)NC(=O)[C@@H](NC(=O)CC(C)C)CCCC=CCCC[C@@H](C(=O)N[C@H](CC(=O)N[C@H](CCCNC(=N)N)C(N)=O)Cc2ccccc2)NC(=O)[C@H](CC(C)(C)C)NC1=O` [compound 110], the 50% inhibitory concentration (IC50) fell in the range of 1 to 10 nM.
Same read-out and setting: in the case of `CC(C)CC(=O)N[C@H]1CCC/C=C/CCC[C@@H](C(=O)N[C@H](CC(=O)N[C@@H](CCCCNC(=O)COCCOCCNC(=O)COCCOCCNC(=O)C[N+](C)(C)CCNC(=O)CCCCCCCCCCCCCCCCC(=O)O)C(=O)N[C@H](CCCNC(=N)N)C(N)=O)Cc2ccccc2)NC(=O)[C@H](CC(C)(C)C)NC(=O)CN(C)C(=O)[C@@H]2CCCN2C(=O)[C@H](C(c2ccccc2)c2ccccc2)NC(=O)[C@H](Cc2c[nH]cn2)NC(=O)[C@H]([C@@H](C)O)NC1=O` [compound 100] it was 10 to 100 nM.
On to `CCCCCCCCCCCCCCCC(=O)N[C@@H](CCC(=O)NCCOCCOCC(=O)NCCOCCOCC(=O)NCCCC[C@@H]1NC(=O)[C@@H]2CCCN2C(=O)[C@H](C(c2ccccc2)c2ccccc2)NC(=O)[C@H](Cc2c[nH]cn2)NC(=O)[C@H]([C@@H](C)O)NC(=O)[C@@H](NC(=O)CC(C)C)CCC/C=C/CCC[C@@H](C(=O)N[C@H](CC(=O)N[C@H](CCCNC(=N)N)C(N)=O)Cc2ccccc2)NC(=O)[C@H](CC(C)(C)C)NC1=O)C(=O)O` [compound 107], for which the IC50 lay within 1 to 10 nM.
With `CC[C@H](C)[C@@H]1NC(=O)[C@H](C)NC(=O)[C@@H]2CCCN2C(=O)[C@H](C(c2ccccc2)c2ccccc2)NC(=O)[C@H](Cc2c[nH]cn2)NC(=O)[C@H]([C@@H](C)O)NC(=O)[C@@H](NC(=O)CC(C)C)CCC/C=C/CCC[C@@H](C(=O)N[C@H](CC(=O)N[C@@H](CCCCNC(=O)COCCOCCNC(=O)COCCOCCNC(=O)CCCCCNC(=O)CCCCCCCCCCCCCCCCC(=O)O)C(=O)N[C@H](CCCNC(=N)N)C(N)=O)Cc2ccccc2)NC1=O` [compound 113], the IC50 lay in the range of 10 to 100 nM.
With `CC(C)CC(=O)N[C@H]1CCC/C=C/CCC[C@@H](C(=O)N[C@H](CC(=O)N[C@H](CCCNC(=N)N)C(N)=O)Cc2ccccc2)NC(=O)[C@H](CC(C)(C)C)NC(=O)[C@H](CCCCNC(=O)COCCOCCNC(=O)COCCOCCNC(=O)CC[C@H](NC(=O)CCCCCCCCCCCCCCCCC(=O)O)C(=O)O)NC(=O)[C@@H]2CCCN2C(=O)[C@H](C(c2ccccc2)c2ccccc2)NC(=O)[C@H](Cc2c[nH]cn2)NC(=O)[C@H]([C@@H](C)O)NC1=O` [compound 108], the IC50 lay within 10 to 100 nM.
